The target of this experiment is Metabotropic glutamate receptor 5 (Rattus norvegicus, UniProt P31424).

By UniProt entry, the sequences of proteins in these tests, tags left out.
UniProt P31424, whole entry: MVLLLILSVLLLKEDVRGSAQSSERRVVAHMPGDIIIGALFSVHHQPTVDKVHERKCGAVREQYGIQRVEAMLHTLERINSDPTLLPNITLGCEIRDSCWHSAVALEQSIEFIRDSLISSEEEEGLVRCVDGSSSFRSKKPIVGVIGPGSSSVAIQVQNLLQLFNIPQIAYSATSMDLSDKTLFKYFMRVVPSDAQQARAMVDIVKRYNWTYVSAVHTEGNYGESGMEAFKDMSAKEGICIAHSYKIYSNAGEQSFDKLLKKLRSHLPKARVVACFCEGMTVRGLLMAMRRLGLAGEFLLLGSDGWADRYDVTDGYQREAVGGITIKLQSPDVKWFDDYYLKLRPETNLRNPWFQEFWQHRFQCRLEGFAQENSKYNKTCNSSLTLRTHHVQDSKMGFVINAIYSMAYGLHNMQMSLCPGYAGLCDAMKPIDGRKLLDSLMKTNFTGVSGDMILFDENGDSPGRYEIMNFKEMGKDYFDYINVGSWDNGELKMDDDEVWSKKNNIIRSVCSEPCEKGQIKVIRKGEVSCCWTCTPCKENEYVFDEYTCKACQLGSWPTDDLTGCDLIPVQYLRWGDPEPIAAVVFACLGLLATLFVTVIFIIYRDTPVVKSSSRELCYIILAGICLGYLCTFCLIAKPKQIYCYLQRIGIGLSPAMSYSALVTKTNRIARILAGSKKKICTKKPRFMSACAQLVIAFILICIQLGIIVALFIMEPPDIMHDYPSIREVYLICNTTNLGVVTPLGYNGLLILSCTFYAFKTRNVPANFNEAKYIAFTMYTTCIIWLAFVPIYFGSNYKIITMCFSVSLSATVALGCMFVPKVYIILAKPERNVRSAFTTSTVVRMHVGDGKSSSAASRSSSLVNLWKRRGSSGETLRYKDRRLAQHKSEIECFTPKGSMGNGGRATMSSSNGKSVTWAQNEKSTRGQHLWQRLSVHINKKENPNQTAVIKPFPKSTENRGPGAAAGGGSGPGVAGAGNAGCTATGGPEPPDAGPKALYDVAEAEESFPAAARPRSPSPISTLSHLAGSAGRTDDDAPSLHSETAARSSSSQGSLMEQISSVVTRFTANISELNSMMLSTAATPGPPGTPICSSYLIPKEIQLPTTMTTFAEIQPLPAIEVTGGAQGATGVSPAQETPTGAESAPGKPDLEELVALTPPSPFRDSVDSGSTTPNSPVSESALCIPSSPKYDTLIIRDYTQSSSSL

pKi: −log10 of the molar value.

A word on the pKi: it is the negative decadic logarithm of the Ki, by convention in mol/L. On to `Cc1cccc(C#Cc2ccccc2)n1` [2-Methyl-6-phenylethynyl-pyridine], for which the negative logarithm of the Ki (pKi) is 9.52.

The record behind these values is BindingDB's records for doi:10.1016/s0024-3205(03)00272-8 (Merck Research Laboratories, 2003).
